Assay results reported in patent US10508107B2, “Morpholine derivative” (Hoffmann-La Roche Inc., priority 2016, dated 2019).
pEC50: −log10 of the molar value.

By UniProt entry, the sequences of proteins in these tests, tags left out. Where a name states a change or a piece, a line headed by the entry shows the natural chain unless it says otherwise.
UniProt Q96RJ0: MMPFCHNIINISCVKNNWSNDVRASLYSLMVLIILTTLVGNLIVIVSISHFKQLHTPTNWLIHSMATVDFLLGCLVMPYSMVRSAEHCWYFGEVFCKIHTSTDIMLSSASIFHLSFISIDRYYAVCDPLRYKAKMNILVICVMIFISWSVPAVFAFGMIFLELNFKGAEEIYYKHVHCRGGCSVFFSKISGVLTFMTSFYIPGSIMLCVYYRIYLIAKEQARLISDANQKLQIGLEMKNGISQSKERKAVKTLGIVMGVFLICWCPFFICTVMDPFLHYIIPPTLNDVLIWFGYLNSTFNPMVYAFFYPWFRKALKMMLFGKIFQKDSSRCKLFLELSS

Target: human TAAR1 (Homo sapiens (Human), UniProt Q96RJ0)
Test: cAMP functional assay in HEK293 cells expressing human TAAR1
Format: cell-based
Conditions: read-out: hTAAR1 EC50
Experimental: For the construction of expression plasmids the coding sequences of human TAAR 1 were amplified from genomic DNA essentially as described by Lindemann et al.[14]. The Expand High Fidelity PCR System (Roche Diagnostics) was used with 1.5 mM Mg^2+ and purified PCR products were cloned into pCR2.1-TOPO cloning vector (Invitrogen) following the instructions of the manufacturer. PCR products were subcloned into the pIRESneo2 vector (BD Clontech, Palo Alto, Calif.), and expression vectors were sequence verified before introduction in cell lines.
HEK293 cells (ATCC # CRL-1573) were cultured essentially as described by Lindemann et al. (2005). For the generation of stably transfected cell lines HEK293 cells were transfected with the pIRESneo2 expression plasmids containing the TAAR coding sequences (described above) with Lipofectamine 2000 (Invitrogen) according to the instructions of the manufacturer, and 24 hrs post transfection the culture medium was supplemented with 1 mg/ml G418 (Sigma, Buchs, Switzerland). […]
cAMP measurements were performed as described previously (Revel et al., Proc. Natl. Acad. Sci. USA 2011, 108, 8485-8490). […] Finally, the plates were read with a luminometer (1420 Multilabel counter; PerkinElmer, Schwerzenbach, Switzerland), and the amount of cAMP was calculated. […]

How did the pEC50 turn out when CCc1[nH]nc(C(=O)Nc2ccc([C@H]3CNCCO3)cc2)c1C [Example 1, 5-Ethyl-4-methyl-N-[4-[(2S)-morpholin-2-yl]phenyl]-1H-pyrazole-3-carboxamide] was run?
Its pEC50 is 7.23.
